A short description of data set [1]: Tolerability and clinical chemistry in NHP. The data set is classed as in vivo, cynomolgus monkeys. The note with it: 40 mg/kg; for clinical chemistry panel: 2-d and 7-d post injection; for tolerability: 60-minute IV infusion.
Data set [2] in a line: Tissue concentration and plasma levels in NHP. The data set is classed as in vivo, cynomolgus monkeys.
A short description of the next data set: Tolerability in CD1 mice. It counts as in vivo. The note with it: for tolerability: 80 to 300 mpk.
Data set [3] is described as follows: Tissue concentration by LC-MS/MS in hDMD mice. The data set is classed as in vivo. The note with it: 5 days; for tissue concentration in skeletal muscles / tissue concentration in the heart: 40 mpk IV.
The nature of data set [4]: Adverse effects and clinical chemistry in hDMD mice. The data set is classed as in vivo. The note with it: for adverse effects post injection: 10-80 mpk IV; for toxicity by clinical chemistry (liver and kidney panel, hemolysis, lipemia): 5 days post IV injection.
Data set [5] concerns Human Primary Renal Proximal Tubular Epithelial Cells (RPTECs). The note with it: 24 hours.
The conditions of data set [6]: HSA-LR mice.
For data set [7], the system named is WI38, RPTEC, and HUVEC cells. The note with it: 1 h treatment, relative to 1% Triton-X100 lysis.
Data set [8] relates to human fibroblast cell line WI38. The note with it: WI38, 24 h, CellTiter-Glo 2.0, relative to vehicle.
For data set [9], the system named is human peripheral blood mononuclear cells (hPBMCs). The note with it: 24 h, CyQuant Green, relative to vehicle.
In data set [10] the test system is primary human renal proximal tubular epithelial cells (RPTECs). The note with it: RPTEC, 24 h; Compound 1b vs. EEV12.
In data set [11] the test system is human umbilical vein endothelial cells (HUVECs). The note with it: HUVEC, 24 h, CyQuant Green, relative to vehicle.

Where two headings read alike, the source gives them in different places.

With “Ac-PKKKRKV-AEEA-Lys-(cyclo[FGFGRGRQ])-PEG12-OH [EEV-PMO-DMD44-1]”, in data set [1], the clinical chemistry panel entry is recorded as “No abnormality” and the tolerability entry is “well-tolerated”. The “extended circulating half-life observed in plasma” value in [2] is on record as “up to 50 hours”. For the same substance, in “Tolerability in CD1 mice” (CD1 mice, 1- and 7-days post injection), the biomarker abnormalities entry is on record as “No biomarker abnormalities were observed”. In “Tolerability in CD1 mice” (CD1 mice, IV), the tolerability entry is given as “very well tolerated”. Besides, the symptoms post injection entry in “Tolerability in CD1 mice” (CD1 mice, IV, all doses, completely resolved 1 hour post injection) is on record as “Only transient symptoms were observed”. Moreover, the tissue exposure entry in data set [3] (10 to 80 mg/kg IV, cardiac and skeletal muscles, maximum) is “up to 80%”. In data set [3], the “tissue concentration in skeletal muscles” value is 100-300 ng/g tissue and the “tissue concentration in the heart” value worked out at 170 ng per gram tissue. Further, in [4], the “adverse effects post injection” value is recorded as “No severe adverse effect”; the “toxicity by clinical chemistry (liver and kidney panel, hemolysis, lipemia)” value is on record as “No significant toxicity”.

“Ac-PKKKRKV-AEEA-K(cyclo[FGFGRGRQ])-PEG12-OH [EEV-PMO-DM1-3]”: the “toxicity (viability): no toxicity at highest concentration tested” value in [5] was over 797 µM. For the same substance, the “drug levels in muscle tissues” value in [6] (15-90 mpk IV, 1 week) is recorded as “dose-dependent response”. In addition, in [6] (80 mpk, 1 week to 4 week), the “drug levels in liver and kidney” value is listed as “decrease in drug levels”. Also, the “drug level in muscle tissue” value in [6] (80 mpk, 1 week to 4 weeks) is listed as “decrease in drug level”.

For the substance “Ac-PKKKRKV-AEEA-K(cyclo[GfFGrGrQ])-PEG12-OH [EEV-PMO-DMD44-2]”, in data set [1], the clinical chemistry panel entry is listed as “No abnormality”. Besides, the tolerability result is on record as “well-tolerated” in [1] and “less tolerated” in “Tolerability in CD1 mice” (CD1 mice, IV). Further, the symptoms result in “Tolerability in CD1 mice” (CD1 mice, 100 mpk IV) is reported as “one out of three mice showed delayed symptoms 2 hours post injection”; in “Tolerability in CD1 mice” (CD1 mice, 200 mpk IV), “one out of three mice had severe symptoms”; in “Tolerability in CD1 mice” (mouse, in vivo), “No symptoms were observed”. Also, the mortality result in the data set “Tolerability in CD1 mice” (CD1 mice, 300 mpk IV) is given as “one out of three mice died within 1-3 h post injection”. The “tissue concentration in skeletal muscles” value in [3] is recorded as 300-500 ng/g tissue. The “tissue concentration in the heart” value in data set [3] stood at 350 ng per gram tissue. In addition, the “adverse effects post injection” value in [4] is “No severe adverse effect”. For the same substance, the “toxicity by clinical chemistry (liver and kidney panel, hemolysis, lipemia)” value in [4] is given as “No significant toxicity”.

Take “Ac-PKKKRKV-PEG2-K(cyclo[FfΦ-Cit-r-Cit-r-Q]-PEG12-K(N3)-NH2 [Compound 1b]”: the LDH release result in data set [7] is reported as “no detectable LDH release”. Further, the cell viability result in data set [8], in [9] and in [11] was “non-significant losses in cell viability” throughout. For the same substance, the “toxicity to RPTECs” value in data set [10] is on record as “reduced toxicity to RPTECs”. For the same substance, the “serum histamine release, fold lower than EEV12” value (5 mg/kg IV vs 5 mg/kg EEV12, serum 15 min post-injection) is reported as ~ 3 fold. Also, where the note is “C57BL/6 mice, IV, unconjugated cCPP”, the tolerability result is listed as “significantly enhanced tolerability”. In addition, for the setting “IV, serum 15 min post-injection”, the “dose necessary for histamine release comparable to 5 mg/kg EEV12” value amounted to 20 mg/kg.

For the origin of these results see patent US20260199493A1 (priority 2021, published 2026).
